Measurements taken from patent publication US5039512A, “NMR imaging with paramagnetic polyvalent metal salts of poly-(acid-alkylene-amino)-alkanes” (Salutar, Inc., priority 1987, dated 1991).

Experiments:
[1] = Relaxivities (T1, T2) of protons in water exposed to the complexes; format: physicochemical; conditions: 10 mHz, 37° C.
Description: (§1) c) Relaxitivities of protons present in water and plasma exposed to the complexes of (a) and (b) (at 10 mHz) (37° C.) in milliseconds:
(§2) c) Relaxivities of protons present in water and plasma exposed to (a) and (b) at 10 mHz (37 C) in milliseconds: […]

[2] = Relaxivities (T1, T2) of protons in plasma exposed to the complexes; format: physicochemical; conditions: 10 mHz, 37° C.
Description: as §1, §2

[3] = Organ distribution in male rabbits, proton relaxation values in vitro (Example 2); format: in vivo; conditions: 15 minutes post-injection, in vitro 10 mHz
Description: e) Organ distribution of (a) and (b) in male rabbits: The rabbits were sacrificed at 69 minutes post injection for (a) and 15 minutes post-injection for (b) and the proton relaxation values measured in milliseconds, in vitro at 10 mHz, for each of the various organs.

[4] = Stability constant (binding ability) towards manganese; conditions: relative to its EDTA analogue

calcium salt of the gadolinium complex of trans-1,2-diamino-cyclohexane-N,N,N',N'tetramethylene phosphonic acid [Example 3(b)]
T1 water ([1]; 1 × 10^-2 moles/liter): 15 milliseconds
T2 water ([1]; 1 × 10^-2 moles/liter): 8 milliseconds
T1 water ([1]; 1.25 × 10^-3 moles/liter): 70 milliseconds
T2 water ([1]; 1.25 × 10^-3 moles/liter): 65 milliseconds
T1 water ([1]; 1.56 × 10^-4 moles/liter): 468 milliseconds
T1 water ([1]; 2.5 × 10^-3 moles/liter): 49 milliseconds
T2 water ([1]; 2.5 × 10^-3 moles/liter): 35 milliseconds
T1 water ([1]; 3.12 × 10^-4 moles/liter): 257 milliseconds
T1 water ([1]; 5 × 10^-3 moles/liter): 25 milliseconds
T2 water ([1]; 5 × 10^-3 moles/liter): 17 milliseconds
T1 water ([1]; 6.25 × 10^-4 moles/liter): 126 milliseconds
T2 water ([1]; 6.25 × 10^-4 moles/liter): 114 milliseconds
T1 water ([1]; 7.80 × 10^-5 moles/liter): 762 milliseconds
T1 plasma ([2]; 1 × 10^-2 moles/liter): 14 milliseconds
T2 plasma ([2]; 1 × 10^-2 moles/liter): 7 milliseconds
T1 plasma ([2]; 1.25 × 10^-3 moles/liter): 60 milliseconds
T2 plasma ([2]; 1.25 × 10^-3 moles/liter): 42 milliseconds
T1 plasma ([2]; 1.56 × 10^-4 moles/liter): 263 milliseconds
T1 plasma ([2]; 2.5 × 10^-3 moles/liter): 36 milliseconds
T2 plasma ([2]; 2.5 × 10^-3 moles/liter): 26 milliseconds
T1 plasma ([2]; 3.12 × 10^-4 moles/liter): 149 milliseconds
T1 plasma ([2]; 5 × 10^-3 moles/liter): 20 milliseconds
T2 plasma ([2]; 5 × 10^-3 moles/liter): 16 milliseconds
T1 plasma ([2]; 6.25 × 10^-4 moles/liter): 95 milliseconds
T1 plasma ([2]; 7.80 × 10^-5 moles/liter): 447 milliseconds

calcium salt of the manganese complex of trans-1,2-diamino-cyclohexane-N,N,N',N'-tetramethylene phosphonic acid [Example 2(b)]
T1 water ([1]; 1 × 10^-2 moles/liter): 16 milliseconds
T2 water ([1]; 1 × 10^-2 moles/liter): 8 milliseconds
T1 water ([1]; 1.25 × 10^-3 moles/liter): 88 milliseconds
T2 water ([1]; 1.25 × 10^-3 moles/liter): 69 milliseconds
T1 water ([1]; 1.56 × 10^-4 moles/liter): 555 milliseconds
T1 water ([1]; 2.5 × 10^-3 moles/liter): 54 milliseconds
T2 water ([1]; 2.5 × 10^-3 moles/liter): 36 milliseconds
T1 water ([1]; 3.12 × 10^-4 moles/liter): 310 milliseconds
T1 water ([1]; 6.25 × 10^-4 moles/liter): 172 milliseconds
T1 water ([1]; 7.80 × 10^-5 moles/liter): 987 milliseconds
T1 testis [3]: 294 milliseconds
T2 testis [3]: 79 milliseconds
T1 brain ([3]; male rabbits): 537 milliseconds
T2 brain ([3]; male rabbits): 85 milliseconds
T2 skeletal muscle ([3]; normal value 47): 34 milliseconds
T2 stomach ([3]; normal value 69): 42 milliseconds
T2 heart ([3]; normal value 70): 40 milliseconds
T2 large intestine ([3]; normal value 77): 58 milliseconds
T2 small intestine ([3]; normal value 79): 60 milliseconds
T2 renal cortex ([3]; normal value 85): 51 milliseconds
T2 lung ([3]; normal value 112): 84 milliseconds
T2 renal medulla ([3]; normal value 149): 47 milliseconds
T2 fat ([3]; normal value 154): 95 milliseconds
T1 fat ([3]; normal value 171): 157 milliseconds
T1 renal cortex ([3]; normal value 338): 109 milliseconds
T1 large intestine ([3]; normal value 349): 248 milliseconds
T1 stomach ([3]; normal value 349): 199 milliseconds
T1 small intestine ([3]; normal value 352): 269 milliseconds
T1 skeletal muscle ([3]; normal value 423): 395 milliseconds
T1 heart ([3]; normal value 504): 191 milliseconds
T1 lung ([3]; normal value 595): 323 milliseconds
T1 renal medulla ([3]; normal value 672): 103 milliseconds
T1 plasma ([2]; 1 × 10^-2 moles/liter): 15 milliseconds
T2 plasma ([2]; 1 × 10^-2 moles/liter): 10 milliseconds
T1 plasma ([2]; 1.25 × 10^-3 moles/liter): 91 milliseconds
T2 plasma ([2]; 1.25 × 10^-3 moles/liter): 74 milliseconds
T1 plasma ([2]; 1.56 × 10^-4 moles/liter): 269 milliseconds
T1 plasma ([2]; 2.5 × 10^-3 moles/liter): 51 milliseconds
T2 plasma ([2]; 2.5 × 10^-3 moles/liter): 45 milliseconds
T1 plasma ([2]; 3.12 × 10^-4 moles/liter): 212 milliseconds
T1 plasma ([2]; 6.25 × 10^-4 moles/liter): 142 milliseconds
T1 plasma ([2]; 7.80 × 10^-5 moles/liter): 372 milliseconds

manganese salt of trans-N,N,N',N'-tetra-carboxymethyl-1,2-diaminocyclohexane [manganese salt of DCTA]
Stability of manganese-nitrogen bond [4]: considerably more stable than its EDTA analogue
